These results are taken from ChEMBL document CHEMBL5325398, “Design of Cytochrome P450 1B1 Inhibitors via a Scaffold-Hopping Approach” (J Med Chem, 2023).

For data set [1], the target named is T1, Cytochrome P450 1A1 (Homo sapiens, UniProt P04798).
T1 sequence (P04798 whole entry): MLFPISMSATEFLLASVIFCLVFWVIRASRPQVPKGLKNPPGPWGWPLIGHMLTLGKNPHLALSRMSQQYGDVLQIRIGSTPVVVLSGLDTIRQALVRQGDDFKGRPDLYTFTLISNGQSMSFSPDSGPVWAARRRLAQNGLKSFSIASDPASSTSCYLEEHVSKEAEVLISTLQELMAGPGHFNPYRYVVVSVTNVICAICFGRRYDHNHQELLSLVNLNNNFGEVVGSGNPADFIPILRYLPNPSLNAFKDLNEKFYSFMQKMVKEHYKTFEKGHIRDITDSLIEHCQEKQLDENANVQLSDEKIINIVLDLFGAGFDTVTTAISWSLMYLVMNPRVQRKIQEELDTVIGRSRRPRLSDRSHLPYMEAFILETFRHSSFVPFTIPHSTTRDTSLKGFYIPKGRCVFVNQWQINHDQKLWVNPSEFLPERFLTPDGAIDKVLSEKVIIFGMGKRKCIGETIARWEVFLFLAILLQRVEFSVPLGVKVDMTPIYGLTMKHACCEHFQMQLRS
The data set is described as follows: Inhibition of CYP1A1 (unknown origin) expressed in HEK293-T-REx cells co-expressing POR incubated for 1 hr by resorufin dye based plate reader analysis. Type of data set: ADME, cell-based.

The nature of data set [2]: Selectivity index, ratio of IC50 for CYP1A1 (unknown origin) to IC50 for CYP1B1 (unknown origin).

The IC50 is the point on the concentration scale where inhibition reaches its midpoint. The low end stands for greater potency in that assay, the high end for weaker potency in that assay. `COc1ccc(-c2nc(-c3ccc(O)cc3)cs2)c(OC)c1` gave a half-inhibitory concentration (IC50) in data set [1] of 2 µM.

Turning to `COc1ccc(-c2csc(-c3ccc(OC)cc3OC)n2)c(OC)c1`, the midpoint of inhibition in data set [1], the IC50, lay at 5.7 µM. Compared with the last compound, the IC50 is about 2.9-fold higher.

Turning to `COc1ccc(OC)c2c1c(OC)cc1c(=O)cc(-c3cccc(F)c3)oc12`, the “Ratio IC50” value in data set [2] is listed as 279.
